# In PubChem BioAssay AID2690 (NMMLSC, 2010):
# The list shows a part of the results, in another mix than the full data. Calls of active or inactive are those of the source.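 How the source made its calls: active means superoxide response under a set limit, about three screen SD below normal (cut at about 65% in these data); inactive means the rest.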
# Test: reduction of superoxide in aged yeast, primary screen, HTS (AID 2690);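 further: yeast aged for seven days with compound at 30 °C before DHE staining; 100% = average MFI of all compound-treated wells on the plate with controls excluded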
# Settings: S. cerevisiae aged cells, superoxide DHE fluorescence; at 10 µM; stronger effect = lower value
row,Compound,superoxide response (% of plate mean)
1,O=C(Nc1cc([As](=O)(O)O)ccc1O)c1ccccc1,inactive: 87.6%
2,CC(C)(C)C(=O)NC(Sc1ccncn1)C(Cl)(Cl)Cl (stereo unspecified),inactive: 98.2%
3,O=[N+]([O-])c1ncn(CCn2ncnc2[N+](=O)[O-])n1,inactive: 154%
4,O=[N+]([O-])c1cccc(NC2=NCC(CBr)S2)c1 (stereo unspecified),inactive: 93.9%
5,O=C(O)CNc1ccc([As](=O)(O)O)cc1,inactive: 104%
6,COc1ccc(C2=NCC(CBr)S2)cc1 (stereo unspecified),inactive: 89.4%
7,CC(=O)N1C2C3N(C(C)=O)C1C1N(C(C)=O)C(C(N1C(C)=O)N3C(C)=O)N2C(C)=O,inactive: 95.8%
8,O=[N+]([O-])c1cccc2n[nH]nc12,inactive: 124%
9,O=[N+]([O-])c1cc([N+](=O)[O-])c(CCNc2ccccc2)c([N+](=O)[O-])c1,inactive: 117%
10,CCc1nc2c(n1)c1c(non1O)c1c2no[n+]1[O-],inactive: 109%
11,Cc1ccc(NP(=O)(Oc2ccccc2)Oc2ccccc2)nc1,inactive: 98.9%
12,C[N+]1=C2C=CC=CC=C2SC12C([N+](=O)[O-])=CC([N+](=O)[O-])=C[C-]2[N+](=O)[O-] (stereo unspecified),inactive: 116%
13,Nc1ccc([As](=O)(O)c2ccc(N)cc2)cc1,inactive: 107%
14,CCN(/C(=N/P(=O)(N1CCOCC1)N1CCOCC1)N1CCOCC1)c1ccc(OC)cc1,inactive: 96.5%
15,CN(C)C(=O)OCCc1n(C)cc[n+]1C,inactive: 97.5%
16,CC(C)=N/N=C(\N)N[N+](=O)[O-],inactive: 99.5%
17,CC1CCN(C(=O)Oc2c(Cl)cc(Cl)c3cccnc23)CC1,inactive: 96.9%
18,NC(=O)c1cc([N+](=O)[O-])cc([N+](=O)[O-])c1N,inactive: 97.9%
19,Cc1ccc(N/C(=N/P(=O)(N2CCOCC2)N2CCOCC2)N2CCOCC2)cc1,inactive: 90.7%
20,CN(C(=O)Cc1ccc(Cl)c(Cl)c1)[C@H]1CCCC[C@H]1N1CCCC1,inactive: 88.2%
21,Cc1ccc(OP(=O)(Nc2nccs2)Oc2ccc(C)cc2)cc1,inactive: 120%
22,COc1ccccc1OP(=O)(Nc1ccc(C)cn1)Oc1ccccc1OC,inactive: 86.3%

row,Compound,superoxide response (% of plate mean)
1,Clc1ccc(Cl)c(NC2=NCC(CBr)S2)c1 (stereo unspecified),inactive: 102%
2,CN1CCCC(OC(=O)C(c2ccccc2)c2ccccc2)C1 (stereo unspecified),inactive: 104%
3,CC(C)CC(=O)NC(Sc1ccc(Cl)cc1)C(Cl)(Cl)Cl (stereo unspecified),inactive: 104%
4,Nc1cc(N)c2nonc2c1[N+](=O)[O-],inactive: 94.7%
5,Cc1c2non([O-])c-2c(C)[n+](=O)[n+]1[O-],inactive: 86.4%
6,O=C(NC(Sc1ccncn1)C(Cl)(Cl)Cl)c1ccccc1 (stereo unspecified),inactive: 104%
7,Oc1ccccc1CNc1ccccn1,inactive: 98.5%
8,O=C(O)c1ccccc1[As](=O)(O)O,inactive: 108%
9,CC(=O)Nc1ccc([As](=O)(O)O)cc1,inactive: 102%
10,O=P(Nc1nc2ccc(Cl)cc2s1)(c1ccccc1)c1ccccc1,inactive: 106%
11,CN(C(=O)Cc1ccc(Cl)c(Cl)c1)[C@H]1CCCC[C@@H]1N1CCCC1,inactive: 104%
12,Cc1ccc(NP(=O)(Oc2ccccc2F)Oc2ccccc2F)nc1,inactive: 108%
13,CCOP(=O)(Nc1ccccc1)OCC,inactive: 114%
14,Cc1cc(SC(NC(=O)c2ccc(F)cc2)C(Cl)(Cl)Cl)ncn1 (stereo unspecified),inactive: 96.2%
15,O=[N+]([O-])c1cc([N+](=O)[O-])c(CCN2CCOCC2)c([N+](=O)[O-])c1,inactive: 127%
16,CCN(N=Nc1nonc1N)c1nonc1N,inactive: 110%
17,Nc1cccc2ccc([As](=O)(O)O)cc12,inactive: 116%
18,O=C(NC1CCS(=O)(=O)C1)NP(=S)(Oc1ccccc1)Oc1ccccc1 (stereo unspecified),inactive: 97.5%
19,CCNC(=S)/N=C(\N)N[N+](=O)[O-],inactive: 101%
20,Cc1ccc(NP(=O)(Oc2cccc(C)c2)Oc2cccc(C)c2)nc1,inactive: 116%
21,CCOC(=O)NC(Sc1ccccc1)C(Cl)(Cl)Cl (stereo unspecified),inactive: 88.1%
22,c1ccc(-c2nn[nH]n2)c(-c2nn[nH]n2)c1,inactive: 103%

row,Compound,superoxide response (% of plate mean)
1,CC(=O)NC(SC(=S)N(CC(C)C)CC(C)C)C(Cl)(Cl)Cl (stereo unspecified),inactive: 99.5%
2,Cc1ccc(OP(=O)(Nc2ccccn2)Oc2ccc(C)cc2)cc1,inactive: 98.2%
3,COC(=O)c1cc2c(s1)N=C(c1ccccc1)N(C)P2(=O)N1CCOCC1 (stereo unspecified),inactive: 95.5%
4,CCC(=O)N1C2C3N(C(=O)CC)C1C1N(C(=O)CC)C(C(N1C(=O)CC)N3C(=O)CC)N2C(=O)CC,inactive: 96.9%
5,O=C(OC1CN2CCC1CC2)c1ccccc1 (stereo unspecified),active: 40%
6,CN(C)C(=O)Oc1noc2ccccc12,inactive: 116%
7,Cc1ccccc1OP(=O)(Nc1ccccn1)Oc1ccccc1C,inactive: 99.6%
8,CC(NC(=O)COC(=O)C(O)(c1ccccc1)c1ccccc1)c1ccccc1 (stereo unspecified),inactive: 105%
9,CCOc1ccc(C2=NCC(CBr)S2)cc1 (stereo unspecified),inactive: 102%
10,O=P1(Nc2nc3ccc(Cl)cc3s2)COc2ccccc2O1 (stereo unspecified),inactive: 94%
11,CC(C)(C)C(=O)NC(Sc1ccccc1)C(Cl)(Cl)Cl (stereo unspecified),inactive: 96.2%
12,CC(=O)c1ccc(N2CC2c2ccncc2)cc1 (stereo unspecified),inactive: 86.7%
13,C[C@@H]1C=CCP(=O)(Oc2ccccc2)O1 (stereo partly specified),inactive: 94.3%
14,C[C@H]1OP(=O)(Oc2ccccc2)C[C@@H]2O[C@@H]21 (stereo partly specified),inactive: 103%
15,Cc1ccccc1CN(C)C(=O)COC(=O)C(O)(c1ccccc1)c1ccccc1,inactive: 94.2%
16,CC(=O)Nc1ccc(Oc2c([N+](=O)[O-])cc([N+](=O)[O-])cc2[N+](=O)[O-])cc1,inactive: 160%
17,CC(=O)Nc1ccc([As](=O)(O)O)c(O)c1,inactive: 96.1%
18,O=P(Nc1nccs1)(c1ccccc1)c1ccccc1,inactive: 95.2%
19,CC(C)C(=O)NC(Sc1ccccc1)C(Cl)(Cl)Cl (stereo unspecified),inactive: 77.3%
20,c1nnnn1CCn1cnnn1,inactive: 116%
21,CN(C)C1(CNC(=O)c2ccc(Cl)c(S(N)(=O)=O)c2)CCCCC1,inactive: 101%
22,O=P(Nc1ccccn1)(c1ccc(Br)cc1)c1ccc(Br)cc1,inactive: 97.7%
